Legend:
5-HT2B receptor = settings: cited from earlier work
histamine H1 receptor = settings: adenylyl cyclase and PLC signaling; cited from earlier work
[1] = test system: 5-HT2 receptor subtypes and H1 receptors; settings: at 5-HT2 receptor subtypes and H1 receptors, depending on receptor type
[2] = target: human histamine H1 receptor (Homo sapiens, UniProt P35367); experiment: Radioligand competitive displacement binding, H1

The chains behind the UniProt entries cited, without tags or fusion partners.
UniProt P35367, whole entry: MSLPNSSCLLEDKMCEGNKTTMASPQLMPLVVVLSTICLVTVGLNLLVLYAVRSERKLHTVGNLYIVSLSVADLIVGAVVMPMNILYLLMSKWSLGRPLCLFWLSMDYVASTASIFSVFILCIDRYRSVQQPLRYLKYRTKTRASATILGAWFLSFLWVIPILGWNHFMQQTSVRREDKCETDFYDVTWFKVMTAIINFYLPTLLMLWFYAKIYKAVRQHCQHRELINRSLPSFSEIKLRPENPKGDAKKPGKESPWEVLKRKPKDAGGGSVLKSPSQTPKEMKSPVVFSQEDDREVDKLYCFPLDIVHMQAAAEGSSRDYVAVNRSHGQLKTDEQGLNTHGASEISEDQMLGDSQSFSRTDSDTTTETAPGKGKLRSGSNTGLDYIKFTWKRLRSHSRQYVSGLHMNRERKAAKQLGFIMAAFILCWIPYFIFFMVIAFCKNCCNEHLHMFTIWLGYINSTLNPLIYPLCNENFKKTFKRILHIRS

## CN(C)[C@@H]1Cc2ccccc2[C@@H](c2ccccc2)C1 (relative stereo) [(−)-trans-PAT, (2S, 4R)-(−)-trans-4-phenyl-N,N-dimethyl-1,2,3,4-tetrahydronaphthalen-2-amine]
5-HT2B receptor
  functional activity at 5-HT2B receptors: inverse agonist (and competitive antagonist) activity
Histamine H1 receptor
  functional activity at H1 receptor signaling: activates H1 receptor-mediated adenylyl cyclase signaling but is an antagonist at H1-linked PLC signaling

## CN(C)C1Cc2ccccc2C(c2ccccc2)C1 (stereo not shown) [PAT, 4-phenyl-2-dimethylaminotetralin]
[1]
  higher affinity for the (−)- over (+)-enantiomer: 3–15 fold

## CN(C)[C@H]1Cc2ccccc2[C@H](c2ccc([N+](=O)[O-])cc2)C1 (relative stereo) [Analog 5j, trans-4-(4′-Nitrophenyl)-N,N-dimethyl-1,2,3,4-tetrahydronaphthalen-2-amine]
[2]
  Ki: 680 nM

Source: paper PMC4363177 (Bioorganic & medicinal chemistry, 2015)
